Among the data in US20200299400A1 (published 2020) are EC50 values, retold here.

The labels stand for the following.
B1: anti-GITR-IgG1 (antibody)
heavy: QVQLVESGGGVVQPGRSLRLSCAASGFTFSSYGMHWVRQAPGKGLEWVAVIWYEGSNKYYADSVKGRFTISRDNSKNTLYLQMNSLRAEDTAVYYCARGGSMVRGDYYYGMDVWGQGTTVTVSSASTKGPSVFPLAPSSKSTSGGTAALGCLVKDYFPEPVTVSWNSGALTSGVHTFPAVLQSSGLYSLSSVVTVPSSSLGTQTYICNVNHKPSNTKVDKKV[left out - human IgG1 Fc]
light: AIQLTQSPSSLSASVGDRVTITCRASQGISSALAWYQQKPGKAPKLLIYDASSLESGVPSRFSGSGSGTDFTLTISSLQPEDFATYYCQQFNSYPYTFGQGTKLEIKRTVAAPSVFIFPPSDEQLKSGTASVVCLLNNFYPREAKVQWKVDNALQSGNSQESVTEQDSKDSTYSLSSTLTLSKADYEKHKVYACEVTHQGLSSPVTKSFNRGEC
B2: anti-GITR-IgG1.1 (antibody)
heavy: QVQLVESGGGVVQPGRSLRLSCAASGFTFSSYGMHWVRQAPGKGLEWVAVIWYEGSNKYYADSVKGRFTISRDNSKNTLYLQMNSLRAEDTAVYYCARGGSMVRGDYYYGMDVWGQGTTVTVSSASTKGPSVFPLAPSSKSTSGGTAALGCLVKDYFPEPVTVSWNSGALTSGVHTFPAVLQSSGLYSLSSVVTVPSSSLGTQTYICNVNHKPSNTKVDKKVEPKSCDKTHTCPPCPAPEAEGAPSVFLFPPKPKDTLMISRTPEVTCVVVDVSHEDPEVKFNWYVDGVEVHNAKTKPREEQYNSTYRVVSVLTVLHQDWLNGKEYKCKVSNKALPSSIEKTISKAKGQPREPQVYTLPPSREEMTKNQVSLTCLVKGFYPSDIAVEWESNGQPENNYKTTPPVLDSDGSFFLYSKLTVDKSRWQQGNVFSCSVMHEALHNHYTQKSLSLSPG
light: AIQLTQSPSSLSASVGDRVTITCRASQGISSALAWYQQKPGKAPKLLIYDASSLESGVPSRFSGSGSGTDFTLTISSLQPEDFATYYCQQFNSYPYTFGQGTKLEIKRTVAAPSVFIFPPSDEQLKSGTASVVCLLNNFYPREAKVQWKVDNALQSGNSQESVTEQDSKDSTYSLSSTLTLSKADYEKHKVYACEVTHQGLSSPVTKSFNRGEC
B3: anti-GITR-IgG2-IgG1 (antibody)
heavy: QVQLVESGGGVVQPGRSLRLSCAASGFTFSSYGMHWVRQAPGKGLEWVAVIWYEGSNKYYADSVKGRFTISRDNSKNTLYLQMNSLRAEDTAVYYCARGGSMVRGDYYYGMDVWGQGTTVTVSSASTKGPSVFPLAPCSRSTSESTAALGCLVKDYFPEPVTVSWNSGALTSGVHTFPAVLQSSGLYSLSSVVTVPSSNFGTQTYTCNVDHKPSNTKVDKTVERKCCVE[left out - human IgG1 Fc]
light: AIQLTQSPSSLSASVGDRVTITCRASQGISSALAWYQQKPGKAPKLLIYDASSLESGVPSRFSGSGSGTDFTLTISSLQPEDFATYYCQQFNSYPYTFGQGTKLEIKRTVAAPSVFIFPPSDEQLKSGTASVVCLLNNFYPREAKVQWKVDNALQSGNSQESVTEQDSKDSTYSLSSTLTLSKADYEKHKVYACEVTHQGLSSPVTKSFNRGEC

The assay has as its target T1, human GITR on cells (human, UniProt Q9Y5U5 26-241).
T1 chain: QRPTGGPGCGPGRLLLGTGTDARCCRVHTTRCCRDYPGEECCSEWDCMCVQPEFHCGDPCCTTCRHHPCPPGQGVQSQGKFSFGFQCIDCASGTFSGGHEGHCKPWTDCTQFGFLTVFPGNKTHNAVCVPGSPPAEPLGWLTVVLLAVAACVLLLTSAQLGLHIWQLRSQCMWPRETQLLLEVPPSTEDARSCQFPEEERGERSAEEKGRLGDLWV
Nature of the assay: FACS binding to activated human CD4 T cells.
As for B1, a half-maximal response (EC50) required 0.257 nM.

For B2, the EC50 turned out to be 0.286 nM.

In the case of B3, the EC50 turned out to be 0.203 nM.
